Literature values, collected in patent publication US11793867B2, “Neoantigens and uses thereof” (BIONTECH US INC., priority 2017, dated 2023).

Details: more than 25 clinical trials; cited from earlier work

## poly-ICLC
  toxicity profile: relatively benign toxicity profile
